The series has as its system CD3+ CD4+ T 세포.

For the substance “재조합 인간 알부민: recombinant human albumin (Albucult, Novozymes), negative control”, the “Number of responding individuals compared with buffer only” value is 2 명.
